Results on three compounds are retold here after patent publication US20140309265A1, “MACROCYCLIC COMPOUNDS FOR INHIBITION OF INHIBITORS OF APOPTOSIS” (Ensemble Therapeutics, priority 2011, published 2014).

Protein sequences, listed by entry. Tags and fused reporters are not part of them. Residues count along the entry.
UniProt P98170, 241-356: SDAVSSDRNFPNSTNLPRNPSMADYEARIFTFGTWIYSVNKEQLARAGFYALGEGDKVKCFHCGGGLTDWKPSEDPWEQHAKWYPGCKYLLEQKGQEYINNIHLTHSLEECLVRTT
UniProt P98170, 124-240 C202A/C213G: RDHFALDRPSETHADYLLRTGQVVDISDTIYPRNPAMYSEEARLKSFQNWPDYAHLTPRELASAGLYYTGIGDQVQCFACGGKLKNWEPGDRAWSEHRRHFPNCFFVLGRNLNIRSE
UniProt P98170, 125-356 C202A/C213G: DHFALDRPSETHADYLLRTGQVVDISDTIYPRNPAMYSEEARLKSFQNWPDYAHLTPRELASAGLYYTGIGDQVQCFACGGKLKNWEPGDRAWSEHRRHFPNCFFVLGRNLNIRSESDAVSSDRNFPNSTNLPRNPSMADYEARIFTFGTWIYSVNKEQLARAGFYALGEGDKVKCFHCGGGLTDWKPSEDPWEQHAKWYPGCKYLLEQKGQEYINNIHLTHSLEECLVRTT

What all share (assay type): binding
Experiment [1] has as its target N-His-Tb-BIR3(241-356, XIAP) (Homo sapiens, UniProt P98170). Nature of the experiment: XIAP-BIR3 SMAC Peptide Fluorescence Polarization Assay (FPA). On the technique in general: Polarisation of emitted light reports the rotation of a fluorescent probe.
For experiment [2], the target named is T1, XIAP His-BIR2 (124-240/C202A/C213G) (Homo sapiens, UniProt P98170, C202A/C213G).
T1 construct: additions of His-BIR2 (124-240/C202A/C213G), Biotinylated SMAC peptide
The experiment can be described thus: XIAP-BIR2/SMAC Peptide AlphaScreen Assay. Particulars: Table 2. As for the experimental part: A. XIAP-BIR2/SMAC Peptide AlphaScreen Assay Assays were performed in white, flat-bottom, 384-well ProxiPlates (Perkin Elmer). […] The reaction was incubated at room temperature for 60 minutes. After 60 minutes, 2.5 μL of Alphascreen detection reagent (Perkin Elmer) was added to the reaction mixture and incubated at room temperature in the dark for 120 minutes. The Alphascreen signal generated by the reaction was detected on the Envision Plate Reader. […] The final concentration of reagents in the assay was 50 nM His-BIR2 (124-240/C202A/C213G), 50 nM Biotinylated SMAC peptide, 4 μg/mL Alphascreen detection reagents, and 0.5% DMSO. Dose response curves were generated to determine the concentration required for inhibiting 50% of kinase activity (IC50). Compounds were dissolved at 10 mM in dimethylsulfoxide (DMSO) and evaluated at eleven concentrations. IC50 values were derived by non-linear regression analysis.
For orientation: Bead proximity is the source of the signal in Alpha formats.

In experiment [3] the target is T2, His-BIR2-3 (125-356, C202A/C213G, XIAP) (Homo sapiens, UniProt P98170, C202A/C213G).
T2 construct: additions of His-BIR2-3 (125-356, C202A/C213G, XIAP), fluorescein labeled dimeric SMAC peptide
Nature of the experiment: XIAP-BIR2-3 Dimeric SMAC Peptide Homogeneous Time Resolved Fluorescence (HTRF) Assay. Particulars: XIAP BIR2-3, HTRF, Table 4. On the technique in general: TR-FRET usually uses a lanthanide donor and a delayed reading to cut background.

The next experiment deals with T3, His-BIR3 (241-356, XIAP) (Homo sapiens, UniProt P98170).
T3 construct: additions of His-BIR3 (241-356, XIAP), fluorescein labeled SMAC peptide
The experiment can be described thus: XIAP-BIR3/SMAC Homogeneous Time Resolved Fluorescence (HTRF) Assay. Particulars: Table 4.

One may read the IC50 as the concentration that gives 50% inhibition. Lower therefore signals higher potency.

Where only a bound is given, the exact number is not on record here.

Take `CN[C@@H](C)C(=O)N[C@H](C(=O)N1C[C@@H]2C[C@H]1C(=O)N[C@@H](Cc1ccc3ccccc3c1)C(=O)N[C@H](C(=O)O)Cc1ccc(cc1)OCc1cn(nn1)[C@H]1C[C@@H](C(=O)N[C@@H](Cc3ccc4ccccc4c3)C(=O)N[C@H](C(=O)O)Cc3ccc(cc3)OCc3cn2nn3)N(C(=O)[C@@H](NC(=O)[C@H](C)NC)C2CCCCC2)C1)C1CCCCC1` [Compound 128]: the results for the IC50 in experiment [1] and in experiment [2] were 50 to 100 nM and less than 2000 nM, respectively.
Consider `CN[C@@H](C)C(=O)N[C@H](C(=O)N1C[C@@H]2C[C@H]1C(=O)N[C@@H](Cc1ccc3ccccc3c1)C(=O)N[C@H](C(=O)O)Cc1ccc(cc1)OCc1cn(nn1)[C@H]1C[C@@H](C(=O)N[C@@H](Cc3ccc4ccccc4c3)C(=O)N[C@H](C(=O)O)Cc3ccc(cc3)OCc3cn2nn3)N(C(=O)[C@@H](NC(=O)[C@H](C)NC)C(C)(C)C)C1)C(C)(C)C` [Compound 127], for which the IC50 was less than 50 nM in experiment [1] and less than 2000 nM in experiment [2].
As to `CN[C@@H](C)C(=O)N[C@H](C(=O)N1C[C@@H]2C[C@H]1C(=O)N[C@@H](Cc1ccc3ccccc3c1)C(=O)N[C@@H](C(=O)O)Cc1ccc(cc1)OCc1cn(nn1)[C@H]1C[C@@H](C(=O)N[C@@H](Cc3ccc4ccccc4c3)C(=O)N[C@@H](C(=O)O)Cc3ccc(cc3)OCc3cn2nn3)N(C(=O)[C@@H](NC(=O)[C@H](C)NC)C(C)(C)C)C1)C(C)(C)C` [Compound 1010], the IC50 was greater than 10 nM in experiment [3] and 10 to 100 nM on His-BIR3 (241-356, XIAP).
